In patent US5849326A, “Method for treating neuronal diseases via administration of 2-acylaminopropanol derivatives” (Seikagaku Corporation, priority 1993, dated 1998):

Assay: in vivo
Conditions: mouse, ip
Compound `CCCCCCCCCC(=O)N[C@H](CN1CCOCC1)[C@@H](O)c1ccccc1` (relative stereo) [DL-erythro-PDMP, 1-phenyl-2-decanoylamino-3-morpholino-1-propanol] has an LD50 of ~700 mg/kg. With `CCCCCCCCCC(=O)N[C@H](CN1CCOCC1)[C@H](O)c1ccccc1` (relative stereo) [DL-threo-PDMP, 1-phenyl-2-decanoylamino-3-morpholino-1-propanol] the LD50 was ~250 mg/kg. `CCCCCCCCCC(=O)N[C@@H](CN1CCOCC1)[C@@H](O)c1ccccc1` [L-threo-PDMP, 1-phenyl-2-decanoylamino-3-morpholino-1-propanol] gave an LD50 of 350 mg/kg.
